{
  "source": "patent US11026985B2",
  "about": "“Methods for removing contaminants from plant-derived pharmaceuticals” (priority 2018, dated 2021)",
  "origin": "cited, not measured here",
  "settings": "permissible limit in Cannabis, State of Oregon",
  "data": [
    {"smiles": "CN(C)NC(=O)CCC(=O)O", "note": "[Daminozide]", "values": [
      {"measurement": "Action Level (ppm)", "value": 1, "unit": "ppm"}
    ]}
  ]
}
